This assay addresses T1, B2 receptor (Homo sapiens, UniProt P30411).
T1 construct: endogenous in cells; host or cells: HaCaT
The assay is described as follows: Intracellular calcium flux in HaCaT cells. Format: cell-based. The note with it: 3 µM HOE140, 100 nM BK/cBK, n = 2. The method, then:
HaCaT cells were seeded onto 96-well plates and, upon reaching full confluence, were starved for 3 h (medium without FBS). […] After 1.5 h in 37 °C, fluorescence intensity (485/525 nm) was recorded continuously for 5 min using FlexStation 3 (Molecular Devices). […] FBS (3%) served as positive control. Results were calculated as area under the curves of RFU fold change from the signal recorded at baseline and adjusted to % of maximum response (FBS) curve. Non-linear regression analyses were performed to generate dose–response curves and calculate EC50 values.
For orientation: A change in cytosolic calcium serves as a functional read-out for many receptors and channels.

Chains of the proteins cited; added tags and fusions are not shown.
UniProt P30411, whole entry: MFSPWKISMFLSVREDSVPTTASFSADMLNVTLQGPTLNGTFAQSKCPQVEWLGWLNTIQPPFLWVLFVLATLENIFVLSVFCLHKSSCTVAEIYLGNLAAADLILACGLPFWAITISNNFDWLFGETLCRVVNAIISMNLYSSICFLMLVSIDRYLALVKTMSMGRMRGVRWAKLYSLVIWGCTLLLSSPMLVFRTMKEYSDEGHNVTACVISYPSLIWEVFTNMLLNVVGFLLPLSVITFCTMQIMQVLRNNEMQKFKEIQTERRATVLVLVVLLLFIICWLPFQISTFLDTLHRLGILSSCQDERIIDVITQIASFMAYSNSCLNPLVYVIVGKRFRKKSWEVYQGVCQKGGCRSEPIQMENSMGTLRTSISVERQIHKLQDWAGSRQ

For the substance HOE140 [reference compound], the “Effect of B2 inhibitor on calcium influx induced by BK/cBK” value is given as “blocked the intracellular calcium influx”.

The record behind these values is article PMC11905624 (BMC Biology, 2025).
